Data set [1] is described as follows: in vivo. Particulars: Sprague-Dawley, rat, po, 1 mg/kg.
Data set [2] in a line: in vivo. Conditions: Sprague-Dawley, rat, iv, 1 mg/kg.
Data set [3] can be described thus: in vivo. Particulars: mouse, po, 10 mg/kg.
Data set [4] in a line: in vivo. Conditions: mouse, po, 10 mg/kg. This is another data set of the same source.
Data set [5] can be described thus: in vivo. Conditions: Sprague-Dawley, rat, po, 0.5 mg/kg.
The nature of data set [6]: in vivo. Conditions: Sprague-Dawley, rat, po, 3 mg/kg.
A short description of data set [7]: in vivo. Conditions: mouse, po.
A short description of data set [8]: in vivo. Conditions: Sprague-Dawley, rat, po, 3 mg/kg. The source holds these as a separate data set.
Data set [9] can be described thus: in vivo. Conditions: mouse, po, 10 mg/kg. The source holds these as a separate data set.
Data set [10] in a line: in vivo. Conditions: Sprague-Dawley, rat, iv, 0.5 mg/kg.
Data set [11] is described as follows: in vivo. Conditions: mouse, iv.
Data set [12] in a line: in vivo. Conditions: Sprague-Dawley, rat, po, 3 mg/kg. The source holds these as a separate data set.
The nature of data set [13]: in vivo. Conditions: Sprague-Dawley, rat, po, 1 mg/kg. This is another data set of the same source.
Data set [14] can be described thus: in vivo. Conditions: Sprague-Dawley, rat, po, 1 mg/kg. This is another data set of the same source.

Structures are written as SMILES.

On to `CCOP(=O)(O)C1=C[C@@H](OC(CC)CC)[C@H](NC(C)=O)[C@@H](N)C1`, for which the Vd/F (usually the volume of distribution divided by bioavailability) in the data set “in vivo [1]” came out at 2.29 L/kg. In addition, the half-life (in general, the time in which the quantity being followed falls by half) in “in vivo [2]” is 1.8 h.

For `CCC(CC)O[C@@H]1C=C(P(=O)(O)O)C[C@H](NC(=N)N)[C@H]1NC(C)=O`, the bioavailability (usually dose-corrected exposure relative to a reference, in per cent) was determined as 7% in “in vivo [3]” and 3.2% in the data set “in vivo [8]”. Besides, the half-life in “in vivo [4]” was 2.44 h; in “in vivo [10]” it was 0.83 h; in “in vivo [11]” it was 0.53 h; in the data set “in vivo [12]”, 1.47 h. For the same molecule, the Vd/F stood at 0.91 L/kg in the data set “in vivo [5]”, 59.6 L/kg in the data set “in vivo [6]”, 0.51 L/kg in the data set “in vivo [7]” and 36 L/kg in “in vivo [9]”.

In the data set “in vivo [13]”, `CCC(CC)O[C@@H]1C=C(P(=O)(O)O)C[C@H](N)[C@H]1NC(C)=O` [TAMIPHOSPHOR] gave a bioavailability of 2.33%. Besides, the half-life was 3.05 h in “in vivo [14]” and 3.36 h in “in vivo [2]”.

Source of the values: ChEMBL document CHEMBL2203066 (J Med Chem, 2012).
